Test results reported in patent US5212286A, “Atrial Natriuretic/vasodilator peptide compounds” (Scios Nova Inc., priority 1986, dated 1993).
pEC50, pIC50, pKi: −log10 of the molar value.

Tests used:
isolated rat kidney = test: Renal function in the isolated perfused rat kidney; conditions: dose 1 μg; experimental period E; mean of 3-8 experiments
[1] = test system: precontracted rabbit or rat aortic preparations; conditions: for pIC50: thoracic aortic segments precontracted with histamine or norepinephrine, read-out: IC50 (concentration producing half-maximal relaxation of the precontracted tissue)
Experimental: Synthetic ANVP compounds were compared to partially purified (gel filtration step) and purified (HPLC) native ANVP compounds (See FIGS. 3A-D) for their ability to relax histamine-contracted aortic rings. Rings were suspended in 10 ml aerated Kreb's buffer under 1.5 gm passive tension. Rings were precontracted with 5 X 10^-6 M histamine, washed and allowed to return to baseline tension, as described ([…]., supra). Increasing amounts of purified or synthetic ANVP compounds were then added in cumulative fashion. […] The relaxation effects of various ANVP compounds on precontracted rabbit or rat aortic preparations are shown in Table III. | Thoracic aortic segments were precontracted with histamine or | norepinephrine as previously described. Various doses of ANVP compounds | were then added and relaxation of the precontracted state was monitored. | Data are expressed as the concentration of each peptide required to | produce a halfmaximal relaxation of the precontracted tissue (IC50).

[2] = test system: ANVP receptor sites on cultured bovine vascular smooth muscle cells; test: Displacement of specific [125I]rANVP(126-150) binding on cultured smooth muscle cells; conditions: Series B smooth muscle cells; concentration of half-maximal displacement
From the text: Specific and saturable binding is a necessary component of a hormone/receptor interaction.
Various concentrations of the peptides described were examined for […]

intact rats = test: Natriuretic and diuretic effects in intact rats (bolus injection); type: in vivo, rat; conditions: dose 3670 pmol/kg
Experimental: Synthetic ANVP compounds […] hANVP(127-151) were also found to be natriuretic in the intact rat. These compounds were administered as a bolus injection to Inactin anesthetized rats (100 mg/kg, average weight 399 g) which were maintained on a constant infusion of normal saline at 2.2 ml/hr. […] Data are expressed as mean±SE.

With CC[C@H](C)[C@@H]1NC(=O)[C@H](CCCNC(=N)N)NC(=O)[C@H](CC(=O)O)NC(=O)[C@H]([C@@H](C)CC)NC(=O)[C@H](CCCNC(=N)N)NC(=O)CNC(=O)CNC(=O)[C@H](Cc2ccccc2)NC(=O)[C@@H](NC(=O)[C@H](CO)NC(=O)[C@H](CO)NC(=O)[C@@H](N)CCCNC(=N)N)CSSC[C@@H](C(=O)N[C@@H](CC(N)=O)C(=O)N[C@@H](CO)C(=O)N[C@@H](Cc2ccccc2)C(=O)N[C@@H](CCCNC(=N)N)C(=O)N[C@@H](Cc2ccc(O)cc2)C(=O)O)NC(=O)CNC(=O)[C@H](CC(C)C)NC(=O)CNC(=O)[C@H](CO)NC(=O)[C@H](CCC(N)=O)NC(=O)[C@@H](C)NC(=O)CNC1=O [[D-Ala^139]rANVP(126-150), H-Arg-Ser-Ser-Cys-Phe-Gly-Gly-Arg-Met-Asp-Arg-Ile-Gly[D-Ala]-Gln-Ser-Gly-Leu-Gly-Cys-Asn-Ser-Phe-Arg-Tyr-OH] the “.V (urine flow rate)” value (isolated rat kidney) was 112.5 µL/min, the GFR (isolated rat kidney) was 0.59 mL/min and the “UNa.V (urinary sodium excretion rate)” value (isolated rat kidney) was 8.14 μEq/min. For the same compound, the pIC50 [1] was 8.57.

CC[C@H](C)[C@@H]1NC(=O)[C@H](CCCNC(=N)N)NC(=O)[C@H](CC(=O)O)NC(=O)[C@H]([C@@H](C)CC)NC(=O)[C@@H](CCCNC(=N)N)NC(=O)CNC(=O)CNC(=O)[C@H](Cc2ccccc2)NC(=O)[C@@H](NC(=O)[C@H](CO)NC(=O)[C@H](CO)NC(=O)[C@@H](N)CCCNC(=N)N)CSSC[C@@H](C(=O)N[C@@H](CC(N)=O)C(=O)N[C@@H](CO)C(=O)N[C@@H](Cc2ccccc2)C(=O)N[C@@H](CCCNC(=N)N)C(=O)N[C@@H](Cc2ccc(O)cc2)C(=O)O)NC(=O)CNC(=O)[C@H](CC(C)C)NC(=O)CNC(=O)[C@H](CO)NC(=O)[C@H](CCC(N)=O)NC(=O)[C@H](C)NC(=O)CNC1=O [[D-Arg^133]rANVP(126-150), H-Arg-Ser-Ser-Cys-Phe-Gly-[D-Ala]-Ile-Asp-Arg-Ile-Gly-Ala-Gln-Ser-Gly-Leu-Gly-Cys-Asn-Ser-Phe-Arg-Tyr-OH] was tested, and the pIC50 [1] was 7.89 and the pKi [2] was 8.33.

With CC[C@H](C)[C@@H]1NC(=O)[C@H](CCCNC(=N)N)NC(=O)CNC(=O)CNC(=O)[C@H](Cc2ccccc2)NC(=O)[C@@H](NC(=O)[C@H](CO)NC(=O)[C@H](CO)NC(=O)[C@@H](N)CCCNC(=N)N)CSSC[C@@H](C(=O)N[C@@H](CC(N)=O)C(=O)N[C@@H](CO)C(=O)N[C@@H](Cc2ccccc2)C(=O)N[C@@H](CCCNC(=N)N)C(=O)N[C@@H](Cc2ccc(O)cc2)C(=O)O)NC(=O)CNC(=O)[C@H](CC(C)C)NC(=O)CNC(=O)[C@H](CO)NC(=O)[C@H](CCC(N)=O)NC(=O)[C@H](C)NC(=O)CNC(=O)[C@H]([C@@H](C)CC)NC(=O)[C@@H](CCCNC(=N)N)NC(=O)[C@H](CC(=O)O)NC1=O [[D-Arg^136]rANVP(126-150), H-Arg-Ser-Ser-Cys-Phe-Gly-Arg-Met-Asp[D-Arg]-Ile-Gly-Ala-Gln-Ser-Gly-Leu-Gly-Cys-Asn-Ser-Phe-Arg-Tyr-OH] the “vasorelaxant potency in words” value ([1]; precontracted vascular preparations) was “most potent” and the pIC50 [1] was 9.19.

In the case of CC[C@H](C)[C@@H]1NC(=O)[C@H](CCCNC(=N)N)NC(=O)[C@H](CC(=O)O)NC(=O)[C@H]([C@@H](C)CC)NC(=O)[C@H](CCCNC(=N)N)NC(=O)CNC(=O)CNC(=O)[C@H](Cc2ccccc2)NC(=O)[C@@H](NC(=O)[C@H](CO)NC(=O)[C@H](CO)NC(=O)[C@@H](N)CCCNC(=N)N)CSSC[C@@H](C(=O)N[C@H](CC(N)=O)C(=O)N[C@@H](CO)C(=O)N[C@@H](Cc2ccccc2)C(=O)N[C@@H](CCCNC(=N)N)C(=O)N[C@@H](Cc2ccc(O)cc2)C(=O)O)NC(=O)CNC(=O)[C@H](CC(C)C)NC(=O)CNC(=O)[C@H](CO)NC(=O)[C@H](CCC(N)=O)NC(=O)[C@H](C)NC(=O)CNC1=O [[D-Asn^146]rANVP(126-150), H-Arg-Ser-Ser-Cys-Phe-Gly-Gly-Arg-Ile-Asp-Arg-Ile-Gly-Ala-gln-Ser-Gly-Leu-Gly-Cys-[D-Asn]-Ser-Phe-Arg-Tyr-OH], the pIC50 [1] was 8.36, the “Peak Na+ Excr.” value (intact rats) was 1.3 ± 0.5 µmol/min and the “Peak Urine Vol.” value (intact rats) was 12.2 ± 1.2 µL/min.

With CC[C@H](C)[C@@H]1NC(=O)[C@H](CCCNC(=N)N)NC(=O)[C@H](CC(=O)O)NC(=O)[C@H]([C@@H](C)CC)NC(=O)[C@H](CCCNC(=N)N)NC(=O)CNC(=O)CNC(=O)[C@H](Cc2ccccc2)NC(=O)[C@H](NC(=O)[C@H](CO)NC(=O)[C@H](CO)NC(=O)[C@@H](N)CCCNC(=N)N)CSSC[C@@H](C(=O)N[C@@H](CC(N)=O)C(=O)N[C@@H](CO)C(=O)N[C@@H](Cc2ccccc2)C(=O)N[C@@H](CCCNC(=N)N)C(=O)N[C@@H](Cc2ccc(O)cc2)C(=O)O)NC(=O)CNC(=O)[C@H](CC(C)C)NC(=O)CNC(=O)[C@H](CO)NC(=O)[C@H](CCC(N)=O)NC(=O)[C@H](C)NC(=O)CNC1=O [[D-Cys^129]rANVP(126-150)] the pIC50 [1] was 8.21.

CC[C@H](C)[C@@H]1NC(=O)[C@H](CCCNC(=N)N)NC(=O)[C@H](CC(=O)O)NC(=O)[C@H]([C@@H](C)CC)NC(=O)[C@H](CCCNC(=N)N)NC(=O)CNC(=O)CNC(=O)[C@H](Cc2ccccc2)NC(=O)[C@@H](NC(=O)[C@H](CO)NC(=O)[C@H](CO)NC(=O)[C@@H](N)CCCNC(=N)N)CSSC[C@H](C(=O)N[C@@H](CC(N)=O)C(=O)N[C@@H](CO)C(=O)N[C@@H](Cc2ccccc2)C(=O)N[C@@H](CCCNC(=N)N)C(=O)N[C@@H](Cc2ccc(O)cc2)C(=O)O)NC(=O)CNC(=O)[C@H](CC(C)C)NC(=O)CNC(=O)[C@H](CO)NC(=O)[C@H](CCC(N)=O)NC(=O)[C@H](C)NC(=O)CNC1=O [[D-Cys^145]rANVP(126-150), H-Arg-Ser-Ser-Cys-Phe-Gly-Gly-Arg-Ile-Asp-Arg-Ile-Gly-Ala-Gln-Ser-Gly-Leu-Gly-[D-Cys]-Asn-Ser-Phe-Arg-Tyr-OH] was tested, and the pIC50 [1] was 7.62, the “Peak Na+ Excr.” value (intact rats) was 1.8 ± 0.4 µmol/min and the “Peak Urine Vol.” value (intact rats) was 27.3 ± 6 µL/min.

With CC[C@H](C)[C@@H]1NC(=O)[C@H](CCCNC(=N)N)NC(=O)[C@H](CC(=O)O)NC(=O)[C@H]([C@@H](C)CC)NC(=O)[C@H](CCCNC(=N)N)NC(=O)CNC(=O)CNC(=O)[C@H](Cc2ccccc2)NC(=O)[C@@H](NC(=O)[C@H](CO)NC(=O)[C@H](CO)NC(=O)[C@@H](N)CCCNC(=N)N)CSSC[C@@H](C(=O)N[C@@H](CC(N)=O)C(=O)N[C@@H](CO)C(=O)N[C@@H](Cc2ccccc2)C(=O)N[C@@H](CCCNC(=N)N)C(=O)N[C@@H](Cc2ccc(O)cc2)C(=O)O)NC(=O)CNC(=O)[C@@H](CC(C)C)NC(=O)CNC(=O)[C@H](CO)NC(=O)[C@H](CCC(N)=O)NC(=O)[C@H](C)NC(=O)CNC1=O [[D-Leu^143]rANVP(126-150), H-Arg-Ser-Ser-Cys-Phe-Gly-Gly-Arg-Met-Asp-Arg-Ile-Gly-Ala-Gln-Ser-Gly-[D-Leu]-Gly-Cys-Asn-Ser-Phe-Arg-Tyr-OH] the “.V (urine flow rate)” value (isolated rat kidney) was 103.0 µL/min, the GFR (isolated rat kidney) was 0.53 mL/min and the “UNa.V (urinary sodium excretion rate)” value (isolated rat kidney) was 3.52 μEq/min. It also gave a pIC50 [1] of 8.44.

CC[C@H](C)[C@@H]1NC(=O)[C@H](CCCNC(=N)N)NC(=O)[C@H](CC(=O)O)NC(=O)[C@H]([C@@H](C)CC)NC(=O)[C@H](CCCNC(=N)N)NC(=O)CNC(=O)CNC(=O)[C@H](Cc2ccccc2)NC(=O)[C@@H](NC(=O)[C@H](CO)NC(=O)[C@H](CO)NC(=O)[C@@H](N)CCCNC(=N)N)CSSC[C@@H](C(=O)N[C@@H](CC(N)=O)C(=O)N[C@@H](CO)C(=O)N[C@@H](Cc2ccccc2)C(=O)N[C@@H](CCCNC(=N)N)C(=O)N[C@@H](Cc2ccc(O)cc2)C(=O)O)NC(=O)CNC(=O)[C@H](CC(C)C)NC(=O)CNC(=O)[C@H](CO)NC(=O)[C@H](CCC(N)=O)NC(=O)[C@H](C)NC(=O)CNC1=O [rANVP(126-150)] showed a pEC50 ([1]; read-out: EC50 for relaxing vascular smooth muscle (FIG. 12a)) of ~8.52.
